Assay results published in PubChem BioAssay (Tox21).
Where “and” joins values, the source holds several entries; their conditions need not be identical. Equal values may be shown once. Only a part is listed here, and it is no random draw. Inconclusive results are not listed. Calls of active or inactive are those of the source. The call rests on the fitted dose curve; in most records, active means well fitted activation curve with a large enough effect in the signal ratio in the repeat runs (not every such curve was filed as active); inconclusive means weak or mixed curves, or effect the other way; inactive means flat fitted curve, though single readings scatter; the % refers to the signal ratio.

Test: qHTS assay to identify small molecule agonists of the endoplasmic reticulum stress response signaling pathway (AID 1159516)
Conditions: ESRE-bla HeLa, ER stress beta-lactamase reporter, 5 h; at 61 µM (top of the series)
Source text: National Center for Advancing Translational Sciences [NCATS]
NIH Chemical Genomics Center [NCGC]
U.S. Environmental Protection Agency [EPA]
National Institutes of Environmental Health Sciences [NIEHS]
National Toxicology Program [NTP]
U.S. Food and Drug Administration [FDA]
Endoplasmic Reticulum (ER) plays an important role in cellular signaling, protein folding/maturation, stress response, lipid biosynthesis, calcium storage and release etc. Under stress conditions, proteins in ER misfold or unfold, and leading to the expression of ER stress responsive genes. ER stress has been associated with a variety of pathophysiological conditions such as cancer, inflammation, neurodegenerative diseases, diabetes, ischemic heart disease etc. To identify the compounds that induce ER stress response, an ER stress reporter cell line, CellSensor ESRE-bla HeLa (Life Technologies, Carlsbad, CA) containing a beta-lactamase reporter gene under control of the Endoplasmic reticulum Stress Response Element (ESRE) was used to screen Tox21 10K compound library.
Tox21 Assay Protocol Summary:
ESRE-bla HeLa cells were dispensed at 1,500 cells/6 uL of assay medium per well into black wall/clear-bottom 1536-well plates using a Multidrop Combi (ThermoFisher Scientific, Waltham, MA) dispenser. After the assay plates were incubated at 37 C and 5% CO2 for an overnight, 23 nL of compounds dissolved in DMSO, positive controls or DMSO only was transferred to the assay plate by a Pintool station (Kalypsys, San Diego, CA). The assay plates were incubated at 37 C and 5% CO2 for 5 hr. One uL of LiveBLAzer B/G FRET substrate (Life Technologies) was added using a Flying Reagent Dispenser (Aurora Discovery, San Diego, CA) and the plates were incubated at room temperature for 2 hr. Fluorescence intensity (405 nm excitation, 460 nm and 530 nm emissions) was measured using an Envision plate reader (PerkinElmer, Shelton, CT).
On the % scale 0 is the no-effect control and ±100 the full control effect.

Question: With `Cc1c([N+](=O)[O-])cccc1[N+](=O)[O-]` as the compound, how does the activation read?
Answer: inactive: -7.53% and inactive: -2.5%

Question: For `COc1ccc([N+](=O)[O-])cc1[N+](=O)[O-]`, which activation is on record?
Answer: inactive: -0.0138%

Question: Which activation does the source give for `COP(C)(=O)OC` here?
Answer: inactive: -1.35%

Question: Which activation does the source give for `OCCSCCO` here?
Answer: inactive: 0.695%

Question: With `CC(C)OP(C)(=O)OC(C)C` as the compound, how does the activation read?
Answer: inactive: -4.47% and inactive: -0.333%

Question: For `C/C1=C2N=C(/C=C3N=C(/C(C)=C4\[N-][C@@](C)([C@@H]5N=C1[C@](C)(CCC(=O)NC[C@@H](C)OP(=O)([O-])O[C@H]1[C@@H](O)[C@@H](n6cnc7cc(C)c(C)cc76)O[C@@H]1CO)[C@H]5CC(N)=O)[C@@](C)(CC(N)=O)[C@@H]4CCC(N)=O)[C@@](C)(CC(N)=O)[C@@H]\3CCC(N)=O)C(C)(C)[C@@H]/2CCC(N)=O.[C-]#N.[Co+3]`, which activation is on record?
Answer: inactive: -0.105%

Question: For `CC(C)N(CCO)C(C)C`, which activation is on record?
Answer: inactive: 2.56%

Question: For `CCOP(=O)(CC)OCC`, which activation is on record?
Answer: inactive: -0.451%

Question: Which activation does the source give for `O=[N+]([O-])OCC(CO[N+](=O)[O-])(CO[N+](=O)[O-])CO[N+](=O)[O-]` here?
Answer: inactive: 0.635%

Question: With `O=[N+]([O-])[O-].[NH4+]` as the compound, how does the activation read?
Answer: inactive: -0.138% and inactive: 1.65%

Question: With `CP(=O)(O)OCCC[Si](O)(O)O` as the compound, how does the activation read?
Answer: inactive: -2.01%

Question: With `Cc1ccc([N+](=O)[O-])cc1[N+](=O)[O-]` as the compound, how does the activation read?
Answer: inactive: -7.29% and inactive: -2.1%

Same assay, conditions: ESRE-bla HeLa, ER stress beta-lactamase reporter, 5 h; at 78.8 µM (top of the series)

Question: Which activation does the source give for `COP(C)(=O)OC` here?
Answer: inactive: -0.0296%

Question: For `OCCSCCO`, which activation is on record?
Answer: inactive: -0.643%

Question: Which activation does the source give for `N=C(N)N[N+](=O)[O-]` here?
Answer: inactive: -2.35%

Question: With `[NH4+].[O-][Cl+3]([O-])([O-])[O-]` as the compound, how does the activation read?
Answer: inactive: -0.103%

Question: With `CCN(CC)CCCl` as the compound, how does the activation read?
Answer: inactive: -2.38%
